Sequences of proteins named here, by UniProt entry; tags and fusion partners are left off.
UniProt Q02293, whole entry, looked up: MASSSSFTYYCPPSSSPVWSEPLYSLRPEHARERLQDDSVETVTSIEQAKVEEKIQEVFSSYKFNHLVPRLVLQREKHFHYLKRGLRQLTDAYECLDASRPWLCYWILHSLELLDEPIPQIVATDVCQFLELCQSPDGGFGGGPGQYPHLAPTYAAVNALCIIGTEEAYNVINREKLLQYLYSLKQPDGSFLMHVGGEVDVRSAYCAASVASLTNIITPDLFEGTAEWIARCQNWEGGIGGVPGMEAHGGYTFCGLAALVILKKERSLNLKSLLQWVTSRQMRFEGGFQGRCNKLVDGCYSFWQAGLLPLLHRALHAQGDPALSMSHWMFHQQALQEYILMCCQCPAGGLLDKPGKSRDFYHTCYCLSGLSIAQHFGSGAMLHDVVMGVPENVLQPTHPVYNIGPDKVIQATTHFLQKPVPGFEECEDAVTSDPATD

According to ChEMBL document CHEMBL1133580, “Successful virtual screening of a chemical database for farnesyltransferase inhibitor leads” (J Med Chem, 2000):

Biological target: Protein farnesyltransferase (Rattus norvegicus, UniProt Q04631+Q02293)
Assay: In vitro inhibition of Farnesyltransferase (FT) by using FT [3H]-SPA kit.
Assay type: protein-complex assay

`NC(=O)c1cc([N+](=O)[O-])cc2c1-c1c(cc([N+](=O)[O-])cc1[N+](=O)[O-])C2=O` showed an IC50 of 80 µM.
In the case of `O=[N+]([O-])c1ccc(O)c(C=C2c3cc([N+](=O)[O-])cc([N+](=O)[O-])c3-c3c2cc([N+](=O)[O-])cc3[N+](=O)[O-])c1`, the IC50 is reported as 100 µM.
